Data as given in patent publication US10105357B2, “Indication of antibiotic drugs for preparation of cancer inhibition pharmaceutical composition” (LAUNX BIOMEDICAL CO., LTD., priority 2014, dated 2018).

Assays:
[1] = system: A375 (Amelanotic Melanoma); assay: Cell viability analysis, skin cancer A375; format: cell-based, human
[2] = system: MCF7 (Mammary Gland, Adenocarcinoma); assay: Cell viability analysis, breast cancer MCF7; format: cell-based; details: Homo sapiens, drug 10 μM, 72 hours, WST-1, OD450 nm, read-out: cell viability (survival rate), MCF7
[3] = system: AGS (Gastric Adenocarcinoma); assay: Cell viability analysis, gastric cancer AGS; details: Homo sapiens, 72 h, read-out: cell viability (survival rate), AGS
[4] = system: TSGH-8301 (Urinary Bladder Carcinoma); assay: Cell viability analysis, bladder cancer TSGH-8301; details: Homo sapiens, 72 h, read-out: cell viability (survival rate), TSGH
[5] = system: HeLa (Cervix Adenocarcinoma); assay: Cell viability analysis, cervical cancer HeLa; details: Homo sapiens, 72 h, read-out: cell viability (survival rate), HeLa
[6] = system: HI650 (Lung Adenocarcinoma); assay: Cell viability analysis, lung cancer HI650; details: Homo sapiens, NCI-H1650, 72 h, read-out: cell viability (survival rate), H1650
[7] = system: MKN-45 (Gastric Adenocarcinoma); assay: Cell viability analysis, gastric cancer MKN-45; details: Homo sapiens, MKN-45, 72 h, read-out: cell viability (survival rate), MKN-45
[8] = system: A549 (Lung Adenocarcinoma); assay: Cell viability analysis, lung cancer A549; details: Homo sapiens, A549, 72 h, read-out: cell viability (survival rate), A549
[9] = system: HepG2 (Hepatocellular Carcinoma); assay: Cell viability analysis, hepatic cancer HepG2; details: Homo sapiens, HepG2, 72 h, read-out: cell viability (survival rate), HepG2
[10] = system: HL-60 (Acute Promyelocytic Leukemia); assay: Cell viability analysis, leukemia HL-60; format: cell-based; details: Homo sapiens, drug 10 μM, 72 hours, WST-1, OD450 nm, read-out: cell viability (survival rate), HL-60
[11] = system: PC3 (p53−) (Prostate Adenocarcinoma); assay: Cell viability analysis, prostate cancer PC3; format: cell-based; details: Homo sapiens; drug 10 μM, 72 hours, WST-1, OD450 nm; read-out: cell viability (survival rate), PC3

Row | Structure (SMILES) | The results of antibiotic drug inhibiting cancer cell lines (cell viability analysis), A375 ([1]; A375, repeated experiment) | viability at 10 µM [2] | viability at 10 µM [3] | viability at 10 µM [4] | viability at 10 µM [5] | viability at 10 µM [6] | viability at 10 µM [7] | viability at 10 µM ([1]; Homo sapiens, A-375, drug 10 μM, 72 hours, WST-1, OD450 nm, read-out: cell viability (survival rate), A375) | viability at 10 µM [8] | viability at 10 µM [9] | viability at 10 µM [10] | viability at 10 µM [11]
1 | CN[C@H](CC(C)C)C(=O)N[C@H]1C(=O)N[C@@H](CC(N)=O)C(=O)N[C@H]2C(=O)N[C@H]3C(=O)N[C@H](C(=O)N[C@H](C(=O)O)c4cc(O)cc(O)c4-c4cc3ccc4O)[C@H](O)c3ccc(c(Cl)c3)Oc3cc2cc(c3O[C@@H]2O[C@H](CO)[C@@H](O)[C@H](O)[C@H]2O[C@H]2C[C@](C)(N)[C@H](O)[C@H](C)O2)Oc2ccc(cc2Cl)[C@H]1O.Cl [Vancomycin HCl (Vancocin)] | 83.4 |  |  |  |  |  |  |  |  |  |  | 
2 | CC1(C)[C@H](C(=O)O)N2C(=O)C[C@H]2S1(=O)=O [Sulbactam] |  | 108% | 80.5% | 133% | 103% | 67% | 77.8% | 84.5% | 81.1% | 91.9% | 104% | 106%
